Results as given in publication PMC8286823, “Identifying SARS-CoV-2 antiviral compounds by screening for small molecule inhibitors of nsp15 endoribonuclease” (Biochemical Journal, 2021).

Biological target: SARS-CoV-2 nsp15 endoribonuclease (Severe acute respiratory syndrome coronavirus 2, UniProt P0DTD1)
Details: for Z-score [High]: high compound concentration 3.75 µM; for Z-score [Low]: low compound concentration 1.25 µM

SMILES	Z-score [High]	Z-score [Low]	Lowest Z-score (lowest of low (1.25 µM) and high (3.75 µM) compound concentration)
CN1C[C@H](C(=O)N[C@]2(C)O[C@@]3(O)[C@@H]4CCCN4C(=O)[C@H](Cc4ccccc4)N3C2=O)C=C2c3cccc4[nH]cc(c34)C[C@H]21 [Ergotamine]	0.06	0.03	
O=C1c2cc([N+](=O)[O-])ccc2-n2c1nc1ccccc1c2=O [GNF-PF-3777]			3.95
CCCCC[C@H](O)CC(=O)CCc1ccc(O)c(OC)c1 [Gingerol]	0.67		
O=C(/C=C/C=C/c1ccc2c(c1)OCO2)N1CCCCC1 [Piperine]	0.05		
C[C@H]1CC[C@@]2(OC1)O[C@H]1C[C@H]3[C@@H]4CC[C@@H]5C[C@@H](O)CC[C@]5(C)[C@H]4CC[C@]3(C)[C@H]1[C@@H]2C [Sarsasapogenin]	0.19	-0.79	
O=C(/C=C/c1ccc(O)c(O)c1)O[C@H](Cc1ccc(O)c(O)c1)C(=O)O [Rosmarinic acid]	1.19	0.08	
C[C@H]1[C@H](C)CC[C@]2(C(=O)O)CC[C@]3(C)C(=CC[C@@H]4[C@@]5(C)CCC(=O)C(C)(C)[C@@H]5CC[C@]43C)[C@H]12 [Ursonic acid]	0.30	0.56	
